Source: ChEMBL document CHEMBL3396960, “Synthesis and pharmacological characterization of 2-aminobenzaldehyde oxime analogs as dual inhibitors of neutrophil elastase and proteinase 3” (Bioorg Med Chem, 2015)

Target: T1, Neutrophil elastase (Homo sapiens, UniProt P08246)
T1 sequence (P08246 whole entry): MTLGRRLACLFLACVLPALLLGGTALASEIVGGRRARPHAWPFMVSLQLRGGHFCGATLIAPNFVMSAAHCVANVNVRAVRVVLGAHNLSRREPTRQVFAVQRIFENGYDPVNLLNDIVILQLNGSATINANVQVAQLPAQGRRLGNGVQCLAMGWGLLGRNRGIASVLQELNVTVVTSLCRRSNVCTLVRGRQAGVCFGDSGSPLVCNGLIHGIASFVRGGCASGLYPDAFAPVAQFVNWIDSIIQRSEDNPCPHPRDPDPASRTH
Experiment: Inhibition of human neutrophil elastase measured for 30 mins by spectrophotometry

IC50 | Structure (SMILES)
50 nM | C/C(=N/O)c1ccccc1NS(=O)(=O)c1ccc(OC(=O)C(C)(C)C)cc1
70 nM | CC(C)(C)C(=O)Oc1ccc(S(=O)(=O)Nc2ccccc2C(=O)NCC(=O)O)cc1
